Yeast mating assay B: variants of the scFv Ab-14

The target is the same throughout: PDVDLGDISGINAS, from the HR2 region of SARS-CoV-2 spike.

Parent scFv Ab-14: VH joined to VL by a 15-residue (Gly4Ser)3 linker. Changes lie in the heavy chain CDRs alone.
VH: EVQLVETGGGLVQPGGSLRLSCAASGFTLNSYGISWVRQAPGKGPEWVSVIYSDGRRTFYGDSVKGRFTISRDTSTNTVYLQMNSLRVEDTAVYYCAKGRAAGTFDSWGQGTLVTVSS
VL: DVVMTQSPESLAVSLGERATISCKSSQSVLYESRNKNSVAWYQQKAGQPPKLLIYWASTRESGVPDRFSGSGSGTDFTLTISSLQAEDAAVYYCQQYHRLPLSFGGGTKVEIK

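Phage display of a naive human antibody library on the peptide gave the parent. Designed CDR sequences, proposed from the first random library and measured here. Group labels follow the data file (Ctrl: baseline library sampled from a position-specific scoring matrix, with some repeated check sequences; Rand: our label for a block that the file lists under HC and that is probably the random mutants of the ten best first-round binders; En: ensemble of fine-tuned language models; GP: Gaussian process model; GPLM: also part of the Gaussian process libraries; HC: hill climbing; Gen: genetic algorithm; Gibbs: Gibbs sampling; a sequence that several methods proposed may carry one label only). AlphaSeq pools MATa yeast showing the antibodies with MATalpha yeast showing the peptide. Mating (16 h, 30 °C) was followed by selection of diploids and sequencing of their barcodes. Read counts were normalised to the haploid input and turned into Kd by a linear fit to BCL2-family pairs of known affinity, for each replicate. Mating was done six times.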

Sequences are complete VH domains. Numbers give log10(Kd / nM), so 0 is 1 nM and 3 is 1 µM. Smaller is tighter. Averages over replicates are reported, and they cover detected replicates only. An entry "not detected" has no value in the source: the pair was not observed among the diploids in any replicate. This suggests poor binding but is not conclusive. Order: sorted from the lowest average up, undetected variants last. Of ten entries with the parent sequence, four were seen in most replicates (averages 0.34 to 2.37), three in one and three in none, so single entries are noisy. A sequence measured in both rounds can read differently, since the two assays cover different ranges. The authors' rule: three or more of the six replicates give a measured affinity, fewer mean a poor binder. Nonspecific signal, from three strains lacking the peptide, appeared in 1% of pairings of all heavy chain designs, centred on 2.08 (5% of these signals below 0.84); values are not corrected for it. Also given: how often the same scFv was detected with the empty control strains.

| mean log10 Kd (nM) | detected | control signals | VH | group |
|---|---|---|---|---|
| -0.43 | 6/6 | 0/18 | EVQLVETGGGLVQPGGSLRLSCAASGFDIDEYGISWVRQAPGKGPEWVSVIYADGMRTFYTDSVKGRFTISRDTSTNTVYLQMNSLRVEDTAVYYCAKGEAAGTFDVWGQGTLVTVSS | En_HC |
| -0.31 | 6/6 | 0/18 | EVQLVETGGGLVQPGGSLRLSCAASGFTLNEYGISWVRQAPGKGPEWVSVIYSDGRRTFYTDSVKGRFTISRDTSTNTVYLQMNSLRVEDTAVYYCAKGRMAGTFDVWGQGTLVTVSS | GP_HC |
| -0.25 | 6/6 | 0/18 | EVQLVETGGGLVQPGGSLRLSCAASGFDLNEYGISWVRQAPGKGPEWVSVIYADGFRTFYTDSVKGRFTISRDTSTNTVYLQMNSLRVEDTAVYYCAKGEVAGTFDNWGQGTLVTVSS | En_HC |
| -0.07 | 6/6 | 1/18 | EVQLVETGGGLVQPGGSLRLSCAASGFDLESYGISWVRQAPGKGPEWVSVIYADGSRTAYADSVKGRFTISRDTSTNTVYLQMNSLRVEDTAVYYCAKGNVAGTFDTWGQGTLVTVSS | En_HC |
| -0.05 | 6/6 | 0/18 | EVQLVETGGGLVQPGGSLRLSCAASGADLNEYGISWVRQAPGKGPEWVSVIYADGRRVYYENSFKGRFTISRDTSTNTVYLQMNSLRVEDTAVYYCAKGHVAGTFDSWGQGTLVTVSS | En_Gibbs |
| -0.01 | 6/6 | 0/18 | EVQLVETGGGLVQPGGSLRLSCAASGFDLNEYGISWVRQAPGKGPEWVSVIYADGVRQAYADSVKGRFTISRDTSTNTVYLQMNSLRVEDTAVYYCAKGENAGTFDIWGQGTLVTVSS | En_Gen |
| -0.01 | 6/6 | 0/18 | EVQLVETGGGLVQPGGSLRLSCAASGFTLNEYGISWVRQAPGKGPEWVSVIYSDGRRTFYHDSVKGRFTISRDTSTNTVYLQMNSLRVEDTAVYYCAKGRTAGTFDSWGQGTLVTVSS | GPLM_Gen |
| 0.06 | 6/6 | 0/18 | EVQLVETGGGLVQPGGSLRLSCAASGFDLNEYGISWVRQAPGKGPEWVSVIYADGRRTFYADSVKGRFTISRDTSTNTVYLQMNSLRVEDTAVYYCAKGETAGTFVQWGQGTLVTVSS | En_HC |
| 0.06 | 6/6 | 0/18 | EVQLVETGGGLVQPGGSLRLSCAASGFSLNEYGISWVRQAPGKGPEWVSVIYSDGRRTFYGDSVKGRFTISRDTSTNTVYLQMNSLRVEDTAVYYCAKGSAAGTFDKWGQGTLVTVSS | GPLM_Gen |
| 0.19 | 6/6 | 1/18 | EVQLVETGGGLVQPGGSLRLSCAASGFDLNEYGISWVRQAPGKGPEWVSVIYADGRRTAYSDSVKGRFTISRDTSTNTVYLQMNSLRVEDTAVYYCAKGEAGGTFDWWGQGTLVTVSS | En_HC |
| 0.20 | 6/6 | 0/18 | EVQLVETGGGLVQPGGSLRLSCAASGFDLNSYGISWVRQAPGKGPEWVSVIYSDGRRTFYIDSVKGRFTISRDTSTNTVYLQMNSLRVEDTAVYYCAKGQAAGTFDVWGQGTLVTVSS | GP_Gen |
| 0.26 | 6/6 | 0/18 | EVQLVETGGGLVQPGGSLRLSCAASGFDLNEYGISWVRQAPGKGPEWVSVIYADGKRTAYSDSVKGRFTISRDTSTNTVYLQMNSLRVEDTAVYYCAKGENAGTFDVWGQGTLVTVSS | En_Gen |
| 0.32 | 6/6 | 0/18 | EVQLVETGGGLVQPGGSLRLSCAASGFDLNEYGISWVRQAPGKGPEWVSVIYADGMRTAYTDSVKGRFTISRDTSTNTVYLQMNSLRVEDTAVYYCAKGNEAGTFDAWGQGTLVTVSS | En_HC |
| 0.45 | 6/6 | 1/18 | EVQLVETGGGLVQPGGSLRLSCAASGFELNSYGISWVRQAPGKGPEWVSVIYSDGLRTFYTDSVKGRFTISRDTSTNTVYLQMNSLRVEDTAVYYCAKGQAAGTFDSWGQGTLVTVSS | GP_Gibbs |
| 0.70 | 6/6 | 0/18 | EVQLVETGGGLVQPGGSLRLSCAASGFTLNSYGISWVRQAPGKGPEWVSVIYSDGHRTFYSDSVKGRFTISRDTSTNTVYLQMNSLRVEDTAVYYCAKGQLAGTFDSWGQGTLVTVSS | GPLM_HC |
| 0.85 | 6/6 | 0/18 | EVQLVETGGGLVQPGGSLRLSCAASGFNLNEYGISWVRQAPGKGPEWVSVIYADGRRTFYADSVKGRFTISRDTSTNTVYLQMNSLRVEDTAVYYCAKGGDAGTFDVWGQGTLVTVSS | En_HC |
| 1.33 | 1/6 | 0/18 | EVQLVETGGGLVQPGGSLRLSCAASGKSLDEYGISWVRQAPGKGPEWVSVIYADGMRKEYTDSVKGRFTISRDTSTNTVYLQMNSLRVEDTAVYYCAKGQFDDGMDLWGQGTLVTVSS | En_Gibbs |
| 1.36 | 6/6 | 0/18 | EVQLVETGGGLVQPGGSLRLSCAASGFTLESYGISWVRQAPGKGPEWVSVIYSDGRRTFYGDSVKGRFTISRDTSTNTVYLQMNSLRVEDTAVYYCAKGRVAGTFDSWGQGTLVTVSS | GPLM_Gen |
| 1.43 | 3/6 | 0/18 | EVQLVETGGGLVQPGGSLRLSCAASGFHLNSYGISWVRQAPGKGPEWVSVIYSDGRRTFYIDSVKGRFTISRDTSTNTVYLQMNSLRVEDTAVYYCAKGQEAGTFDSWGQGTLVTVSS | GP_Gen |
| 1.43 | 4/6 | 0/18 | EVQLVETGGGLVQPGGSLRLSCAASGFTLQSYGISWVRQAPGKGPEWVSVIYSDGRRTSYGDSVKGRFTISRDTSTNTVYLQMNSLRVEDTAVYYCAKGSAAGTFDKWGQGTLVTVSS | Ctrl |
| 1.44 | 1/6 | 0/18 | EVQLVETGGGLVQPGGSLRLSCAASGFSLNSYGISWVRQAPGKGPEWVSVIYSDGRRTFYGDSVKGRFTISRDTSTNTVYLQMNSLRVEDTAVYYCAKGQAAGTFDRWGQGTLVTVSS | GPLM_Gen |
| 1.99 | 1/6 | 1/18 | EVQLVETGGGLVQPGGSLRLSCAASGKTLNEYGISWVRQAPGKGPEWVSVIYSDGVRTFYRDSVKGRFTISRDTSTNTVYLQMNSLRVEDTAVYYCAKGRFAGTPDSWGQGTLVTVSS | Rand |
| not detected | 0/6 | 1/18 | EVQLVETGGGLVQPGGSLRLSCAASGFQLDEVGISWVRQAPGKGPEWVSVIYADGMRTAYADSFKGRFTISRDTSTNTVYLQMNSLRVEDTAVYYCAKGVKSTIIGIWGQGTLVTVSS | En_Gibbs |
| not detected | 0/6 | 0/18 | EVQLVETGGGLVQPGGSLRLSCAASGFTLDSYGISWVRQAPGKGPEWVSVIYSDGRRTFYTDSVKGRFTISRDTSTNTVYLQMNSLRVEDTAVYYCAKGRAAGTALHWGQGTLVTVSS | Rand |
| not detected | 0/6 | 0/18 | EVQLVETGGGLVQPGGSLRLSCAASGEDLNEYGISWVRQAPGKGPEWVSVIYADGQRTYYDNSVKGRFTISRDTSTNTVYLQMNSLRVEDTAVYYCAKGKFAGSFFHWGQGTLVTVSS | En_Gibbs |

Picked from the list: the 4 lowest averages where every replicate gave a value.

| VH | group | mean log10 Kd (nM) | detected | control signals |
|---|---|---|---|---|
| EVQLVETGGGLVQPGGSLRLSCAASGFDIDEYGISWVRQAPGKGPEWVSVIYADGMRTFYTDSVKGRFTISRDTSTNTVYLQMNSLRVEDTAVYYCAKGEAAGTFDVWGQGTLVTVSS | En_HC | -0.43 | 6/6 | 0/18 |
| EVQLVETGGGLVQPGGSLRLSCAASGFTLNEYGISWVRQAPGKGPEWVSVIYSDGRRTFYTDSVKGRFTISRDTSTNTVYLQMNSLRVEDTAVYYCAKGRMAGTFDVWGQGTLVTVSS | GP_HC | -0.31 | 6/6 | 0/18 |
| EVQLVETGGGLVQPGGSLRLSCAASGFDLNEYGISWVRQAPGKGPEWVSVIYADGFRTFYTDSVKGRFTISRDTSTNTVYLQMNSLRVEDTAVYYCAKGEVAGTFDNWGQGTLVTVSS | En_HC | -0.25 | 6/6 | 0/18 |
| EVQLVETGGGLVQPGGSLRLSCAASGFDLESYGISWVRQAPGKGPEWVSVIYADGSRTAYADSVKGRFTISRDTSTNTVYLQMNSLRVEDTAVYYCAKGNVAGTFDTWGQGTLVTVSS | En_HC | -0.07 | 6/6 | 1/18 |

The measurements come from Li et al. 2023 (doi:10.1038/s41467-023-39022-2) through the FLAb antibody collection.